Measurements from patent US20190077795A1, “ARGININE […] INHIBITORS AND USES THEREOF” (Epizyme, Inc., priority 2014, published 2019).

Tested on: mono-methyl arginine in RKO cells
Test: RKO Methylation Assay, In Cell Western (ICW)
Assay type: cell-based
Details: 72 hours
Description: RKO adherent cells were purchased from ATCC (American Type Culture Collection), Manassas, Va., USA. DMEM/Glutamax medium, penicillin-streptomycin, heat inactivated fetal bovine serum, 0.05% trypsin and D-PBS were purchased from Life Technologies, Grand Island, N.Y., USA. Odyssey blocking buffer, 800CW goat anti-rabbit IgG (H+L) antibody, and Licor Odyssey infrared scanner were purchased from Licor Biosciences, Lincoln, Nebr., USA. Mono-methyl arginine antibody was purchased from Cell Signaling Technology, Danvers, Mass., USA. Methanol was purchased from VWR, Franklin, Mass., USA. 10% Tween 20 was purchased from KPL, Inc., Gaithersburg, Md., USA. DRAQ5 was purchased from Biostatus Limited, Leicestershire, UK. […]
First, the ratio for each well was determined by:
Each plate included fourteen control wells of DMSO only treatment (minimum activation) as well as fourteen control wells for maximum activation treated with 20 μM of a reference compound. The average of the ratio values for each control type was calculated and used to determine the percent activation for each test well in the plate. […] Percent activation was determined and EC30 curves were generated using triplicate wells per concentration of compound.

SMILES: CNCCN(C)Cc1c[nH]nc1-c1ccc(O[C@H]2C[C@H](OCCC3CCOCC3)C2)cc1 [Compound 155, N1,N2-dimethyl-N1-((3-(4-(3-(2-(tetrahydro-2H-pyran-4-yl)ethoxy)cyclobutoxy)phenyl)-1H-pyrazol-4-yl)methyl)ethane-1,2-diamine bis(2,2,2-trifluoroacetate)]
- ICW EC30: 1039 nM
